Literature values, collected in US20220280614A1, “Premixed Ultra-Stable Single-Chain Insulin Analogue Formulations” (CASE WESTERN RESERVE UNIVERSITY, priority 2019, published 2022).

Conditions: cited from earlier work

## Insulin
  increase in degradation rate for each 10° C. increment in temperature above 25° C.: ≥ 10 fold
